Test results reported in patent publication US7276347B2 (priority 2004, dated 2007).

Key:
[1] = tested on: monoclonal antibody to HCY Oxime-KLH (example 4b); conditions: competitive ELISA; plate coated with HCY Oxime-BSA conjugate at 5 ug/mL; analyte concentration inhibiting 50% of absorbance
[2] = tested on: antibodies to HCY Oxime-BTG (example 4a); conditions: competitive ELISA; plate coated with HCY Oxime-BSA conjugate at 1.25 μg/mL; analyte concentration inhibiting 50% of absorbance

CON=CCCOP(N)(=O)N(CCCl)CCCl (centres unmarked)
IC 50 [1]: 0.1 µg/mL (≈ 0.327 µM) | IC 50 [2]: 0.03 µg/mL (≈ 0.098 µM)

In brackets after ≈: the same amount, converted by molar mass.
